Bioassay records from PubChem.
Sfp PPTase inh = Sfp phosphopantetheinyl transferase inhibition; Biochemical Sfp PPTase activity, qHTS; Potency, µM, actives largely listed as inhibitors; 310,000 tested, 3.5% active; AID 1490;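 note: the enzyme is Sfp with the accession as filed and its product quenches rhodamine fluorescence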
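With Hepes-Na pH 7.6 buffer containing 10 mM MgCl2, Sfp (15 nM) modified BHQ-2-YbbR (12.5 uM) using rhodamine-CoA (5 uM). Two reads 30 minutes apart at 525/598 nm yielded each well's rate.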
KDM4E inh = blocks human JMJD2E demethylase activity. B2RXH2. AID 2147. Potency, µM (series often up to 57.1 µM), hits mostly inhibitors. JMJD2E catalytic domain, FDH-coupled NADH fluorescence (FDH is formaldehyde dehydrogenase). 230,000 tested, 1.6% active; active = well fitted inhibition curve with a large enough effect, not every such curve was filed as active; inconclusive = small, poorly fitted or top-dose-only effect, or another doubt; inactive = no such curve, though single readings can be large or run the other way; note: nearly all actives have a fitted effect of over 50% in size
G9a block = blocks human histone lysine methyltransferase G9a; Q96KQ7; G9a H3K9 monomethylation, AlphaScreen, 2 h; Potency, µM (series often up to 102 µM), usual class: inhibitors; 350,000 tested, 8.8% active; AID 504332; note: nearly all actives have a fitted effect of over 75% in size
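Chemiluminescent proximity detection of H3K9 monomethylation, read after 10 min bead incubation in the dark. Reaction: 20 nM G9a, 500 nM biotin-H3K9 peptide, 20 uM SAM cofactor, 2 h, room temperature, following 15 min enzyme-compound preincubation.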
miR-21 reporter = miR-21 reporter, rising signal. HeLa miR-21 FLuc reporter, luciferase, 48 h. Potency, µM (titrated, usually from 38.3 µM). 340,000 tested, under 10 active. AID 2288; active = well fitted rising curve with a large enough effect; inconclusive = small, poorly fitted or top-dose-only effect; inactive = no such curve, though single readings can be large or run the other way;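 also: miR-21 action dims this reporter so a rising signal means less miR-21 action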
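HeLa cells endogenously expressing miR-21, stably carrying CMV-driven firefly luciferase with a downstream miR-21 binding site, 2000 cells/well. Titrations up to approximately 40 uM, 48 hours; luciferase luminescence read.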
LMNA splice mod = changes lamin A minigene splicing in HeLa cells | HeLa LMNA splicing GFP/RFP minigene ratio, 48 h | Potency, µM (series often up to 46.1 µM), most hits filed as inhibitors | 200,000 tested, 0.01% active | AID 1487; active = well fitted inhibition curve with a large enough effect in the signal ratio, with a control signal flat, not every such curve was filed as active; inconclusive = small, poorly fitted or top-dose-only effect, or effect the other way, or a change in a side signal; the % refers to the signal ratio
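Read-out is the ratio of GFP to DsRed2 object intensity, acquired by 488 nm laser-scanning cytometry on HeLa lamin A-EGFP minigene reporter cells. Compound incubation 48 hrs at 37 °C in Opti-MEM with 2% FBS; DMSO 0.5% final.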
ALDH1A1 block = blocks purified human ALDH1A1 activity | P00352 | Potency, µM (series often up to 75.3 µM), hits mostly inhibitors | Purified ALDH1A1, NADH fluorescence, propionaldehyde substrate | 220,000 tested, 7.3% active; active = well fitted inhibition curve with a large enough effect, not every such curve was filed as active; inconclusive = small, poorly fitted or top-dose-only effect, or another doubt; inactive = no such curve, though single readings can be large or run the other way
Hits are given with their value; n = inactive; u = inconclusive; x = not tested or not shown; ! = not confirmed by another sample; [ ] = remark or other dose. Shown are actives, neighbours in structure and some others; about 13% of the full set was active somewhere. Unless noted, calls come from the whole dose curve; as a rule, active = well fitted curve in the direction sought with a large enough effect; inconclusive = small, poorly fitted or top-dose-only effect, or another doubt; inactive = no such curve, though single readings can be large; an effect the other way counts as inactive or inconclusive.

SMILES	Sfp PPTase inh	KDM4E inh	G9a block	miR-21 reporter	LMNA splice mod	ALDH1A1 block
COc1ccc(OCC(=O)Nc2cc3c(cc2C(=O)O)OCCCO3)cc1	u	x	14µM	n	x	x
Cc1noc(NC(=O)Nc2ccccc2F)c1C#N	x	x	x	x	x	n[13.5 µM]
O=C1c2ccccc2-c2nc3ccccc3nc21	n	n	n[12.7 µM]	n	n	13µM
CC(=O)Nc1ccc(S(=O)(=O)NNC(=S)NCc2ccco2)cc1	45µM	x	32µM	n	x	x
CCC(=O)Nc1ccc(S(=O)(=O)NCc2ccco2)cc1	n	n	45µM	n	n	n
CCC(C)NS(=O)(=O)c1ccc(S(=O)(=O)N(CC(=O)Nc2ccccc2)Cc2ccco2)cc1 (stereo not drawn)	n	n	n[12.7 µM]	n	u	25µM
COc1cccc(CNS(=O)(=O)c2ccc(S(=O)(=O)N3CCCC3)cc2)c1	10µM	n	x	n	x	u
O=c1nc(N/N=C/C=C/c2ccccc2)cn[nH]1	u	n	x	n	x	x
OCC1O[C@H](O[C@H]2C(O)C(O)C(O)O[C@@H]2CO)C(O)C(O)C1O (stereo partly drawn)	n	n	n[12.7 µM]	x	n	n
O=S(=O)(NCc1ccco1)c1cccc(S(=O)(=O)N2CCOCC2)c1	n	n	u	n	n	n
CCNS(=O)(=O)c1ccc(NC(=S)NCc2ccco2)cc1	n	u	14µM	n	n	22µM
O=C(c1ccc(NC(=S)NCc2ccco2)cc1)N1CCCCC1	u	n	50µM	n	x	22µM
O=S(=O)(NCc1ccco1)c1ccc(S(=O)(=O)N2CCCC2)cc1	3.2µM	n	x	n	x	8.9µM
O=S(=O)(NCc1ccccc1)c1ccc(NC(=S)NCc2ccco2)cc1	n	x	50µM	n	x	x
C=C(C)CSc1[nH]c(=O)cc(C)c1C#N	n	n	x	n	n	n
COc1ccc2nc3oc(C(=O)NCc4ccccc4OC)cc3cc2c1	x	x	n	n	x	x
CCc1ccc(NC(=O)CCS(=O)(=O)c2cccc3nsnc23)cc1	79µM	n	40µM	n	n	n
Cc1ccc(CNC(=O)CCS(=O)(=O)c2cccc3nsnc23)cc1	n	n	n[12.7 µM]	n	n	n
CCN(CC)c1ccc(NC(=O)CCS(=O)(=O)c2cccc3nsnc23)c(C)c1	n	n	40µM	n	n[9.22 µM]	28µM
CCN(CC)c1ccc(NC(=O)CCc2nc3cccnc3n2Cc2cccs2)c(C)c1	x	x	8.9µM	n	x	x
CCOc1ccc(OCC)c(NC(=O)CCc2nc3cccnc3n2Cc2cccs2)c1	x	x	n	n	x	x
Cc1ccc(NC(=O)CCS(=O)(=O)c2cccc3nsnc23)c(C)c1	x	x	n	n	x	x
Cc1nc2ccc(S(=O)(=O)CCC(=O)Nc3ccc(F)cc3C)cc2s1	x	x	4.5µM	n	x	x
Cc1ncc(COC(=O)C(C)C)c2cc(C(=O)Nc3ccccc3C(F)(F)F)c(=O)oc12	x	x	n	n	u	x
CCCC(=O)O[C@]1(C(=O)CCl)[C@H](C)C[C@@H]2[C@H]3CCC4=CC(=O)C=C[C@]4(C)[C@@]3(F)C(=O)C[C@@]21C	n	x	n[12.7 µM]	x	x	x
SMILES	Sfp PPTase inh	KDM4E inh	G9a block	miR-21 reporter	LMNA splice mod	ALDH1A1 block
O=C(CCS(=O)(=O)c1cccc2nsnc12)N1CCN(Cc2ccc3c(c2)OCO3)CC1	n	n	n[0.501 µM]	n	n[0.0737 µM]	u
O=C(CCS(=O)(=O)c1cccc2nsnc12)N1CCN(C(=O)c2ccco2)CC1	n	n	u	n	n	25µM
O=C(CCS(=O)(=O)c1cccc2nsnc12)NC1CCCCC1	n	n	22µM	n	n	u
COc1ccc(S(=O)(=O)N2CCCOC2CNC(=O)C(=O)NC2CCCC2)cc1 (stereo not drawn)	n	x	n	n	x	x
CC(=O)c1cccc(Nc2ncnc3c2cnn3C)c1	x	x	n	n	n	x
CCCc1nn2c(=O)cc(COC(=O)c3ccc(NC(=O)C4CCCCC4)cc3)nc2s1	x	x	n[12.7 µM]	n	n	x
O=C(N[C@H](CO)[C@H](O)c1ccc([N+](=O)[O-])cc1)C(Cl)Cl	n	n	x	x	x	14µM!
COC(=O)c1ccc(NC2CC(=O)N(c3ccccc3C)C2=O)cc1 (stereo not drawn)	n	n	u	n	n	13µM
Cc1ccccc1N1C(=O)CC(Nc2ccc3c(c2)OCO3)C1=O (stereo not drawn)	u	n	40µM	n	x	n
COC(=O)c1ccccc1NC1CC(=O)N(c2c(C)cccc2C)C1=O (stereo not drawn)	28µM	u	u	n	n	u
